Test results: ChEMBL document CHEMBL1135692, “Structure-activity relationships of the melanocortin tetrapeptide Ac-His-D-Phe-Arg-Trp-NH2 at the mouse melanocortin receptors. 4. Modifications at the Trp position” (J Med Chem, 2002)

Chains of the proteins cited; added tags and fusions are not shown. Lines headed by an entry give the natural chain unless they say otherwise; changes in a name come on top.
UniProt Q01727: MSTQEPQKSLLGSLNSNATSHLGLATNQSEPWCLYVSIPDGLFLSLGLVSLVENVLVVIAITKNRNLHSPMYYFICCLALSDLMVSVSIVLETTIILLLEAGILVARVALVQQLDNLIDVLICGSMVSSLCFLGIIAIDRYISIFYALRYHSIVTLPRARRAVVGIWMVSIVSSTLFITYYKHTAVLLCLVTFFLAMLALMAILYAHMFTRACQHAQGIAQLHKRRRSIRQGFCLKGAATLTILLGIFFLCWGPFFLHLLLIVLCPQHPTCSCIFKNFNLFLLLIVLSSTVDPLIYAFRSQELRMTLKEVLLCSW

Target: Melanocyte-stimulating hormone receptor (Mus musculus, UniProt Q01727)
Assay: Activity in mouse melanocortin-1 receptor stably expressed in HEK293 cells
Assay type: cell-based

- EC50: 140 nM
Structure (SMILES): CC(=O)N[C@@H](Cc1cnc[nH]1)C(=O)N[C@H](Cc1ccccc1)C(=O)N[C@@H](CCCN=C(N)N)C(=O)NC(Cc1c[nH]c2ccccc12)C(N)=O (stereo in doubt)
